Results reported in PubChem BioAssay AID463210 (The Scripps Research Institute Molecular Screening Center, 2010).
Only a part is listed here, and it is no random draw. Calls of active or inactive are those of the source.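 Rule for the calls: active = percent activation above the screen-wide mean plus 3 SD (cut at about 25% in these data); inactive = the rest.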

Chains of the proteins cited; added tags and fusions are not shown.
UniProt P55210, whole entry D23A/D198A/D206A: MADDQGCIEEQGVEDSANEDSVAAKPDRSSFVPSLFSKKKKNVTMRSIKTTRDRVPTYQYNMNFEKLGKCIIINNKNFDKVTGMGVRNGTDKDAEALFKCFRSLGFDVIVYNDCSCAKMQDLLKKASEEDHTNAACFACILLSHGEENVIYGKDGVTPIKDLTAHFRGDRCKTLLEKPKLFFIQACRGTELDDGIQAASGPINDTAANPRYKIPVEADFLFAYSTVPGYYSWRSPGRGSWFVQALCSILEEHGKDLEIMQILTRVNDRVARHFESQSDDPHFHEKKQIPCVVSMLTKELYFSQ

What follows are compounds tested against Caspase-7 (Homo sapiens) (UniProt P55210) (assay: procaspase-7 activators, primary screen, counter-screen for procaspase-3 activator project, biochemical, absorbance, HTS, human (AID 463210)). Conditions: recombinant procaspase-7, Ac-DEVD-pNA absorbance 405 nm; at 8.5 µM; hits give high values; D23A/D198A/D206A triple mutant, cannot self-cleave; scale: DMSO 0, 5 µM enzyme 100.
Summary of the method: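 Assay system: Uncleavable procaspase-7 mutant enzyme / Input: 2 µM procaspase-7 mutant as dispensed / Dosing: single nominal 8.5 µM compound dose, 0.8% DMSO final / Timing: 1 h enzyme–compound preincubation and 2 h substrate reaction, both 25 °C / Detection: p-Nitroaniline absorbance at 405 nm, read at 0 and 120 min / Replication: singlicate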
In the case of `O=C(NCC1(N2CCCCC2)CCCCC1)c1cccs1`, the activation is reported as inactive: 8.03%. With `CSc1ccccc1C(=O)NCC1(N2CCCCC2)CCCCC1` the activation was inactive: -0.77%. With `CCOC(=O)N1CCC(Nc2cccc(C)c2)CC1` the activation was inactive: -7.74%. `Cc1ccc(OCC(C)C)c(CN(CCCl)CCCl)c1` was tested, and the activation was inactive: -4.1%. With `CCOc1ccc(C)cc1CN(CCCl)CCCl` the activation was inactive: -7.36%. For `O=C(NCC1(N2CCCCC2)CCCCC1)c1ccc(F)cc1`, the activation was inactive: -7.48%. In the case of `COc1ccc(NC2CCN(CCc3ccccc3)CC2)c(OC)c1`, the activation is reported as inactive: -34.6%. `CCN1CCC(Nc2cccc(F)c2)CC1` was tested, and the activation was inactive: 0.77%. With `O=C(NCC1(N2CCCCC2)CCCCC1)c1ccco1` the activation was inactive: -2.93%. For `CN(C)c1ccc(C(=O)NCC2(N3CCCCC3)CCCCC2)cc1`, the activation was inactive: -7.15%. `COc1cc(OC)cc(C(=O)NCC2(N3CCCCC3)CCCCC2)c1` was tested, and the activation was inactive: 12.9%. For `Cc1ccc(C(=O)NCC2(N3CCCCC3)CCCCC2)o1`, the activation was inactive: -4.54%. For `Fc1ccccc1NC1CCN(Cc2ccccc2)CC1`, the activation was inactive: 7.87%. For `COc1cc(OC)cc(C(=O)NCC2(N3CCOCC3)CCCCC2)c1`, the activation was inactive: 1.29%. For `COc1cccc(C(=O)N(c2cc(C)cc(C)c2)C2CCN(C(=O)OC(C)(C)C)CC2)c1`, the activation was inactive: 18.5%. In the case of `CCC(CO)(C(=O)OC1CN2CCC1CC2)c1ccccc1` (stereo not given), the activation is reported as inactive: 5.09%. `CN1CCC(Nc2ccc(Cl)cc2)CC1` was tested, and the activation was inactive: 2.27%. In the case of `CCCOc1ccc(C)cc1CN(CCCl)CCCl`, the activation is reported as inactive: -9.94%. For `CCOc1ncccc1C(=O)NCC1(N2CCOCC2)CCCCC1`, the activation was inactive: 9.84%. `CN1CCC(Nc2ccc(F)c(Cl)c2)CC1` was tested, and the activation was inactive: 8.06%. With `CC(C)(C)OC(=O)N1CCC(Nc2ccccc2)CC1` the activation was inactive: -3.19%. In the case of `O=C(O)C1(Nc2ccccc2)CCN(Cc2ccccc2)CC1`, the activation is reported as inactive: -3.61%. For `CCCOc1ccc(C(=O)NCC2(N(C)C)CCCCC2)cc1`, the activation was inactive: -4.5%. In the case of `CCOC(=O)N1CCC(Nc2ccc(C)cc2)CC1`, the activation is reported as inactive: -3.11%. `N/C(=N\O)c1c(N)no[n+]1[O-]` was tested, and the activation was inactive: -17.8%. In the case of `O=C(OC1CN2CCC1CC2)C1c2ccccc2C=Cc2ccccc21` (stereo not given), the activation is reported as inactive: 2.32%. For `CCc1cc(C(=O)NCC2(N3CCCCC3)CCCCC2)sc1C`, the activation was inactive: 2.18%. In the case of `COc1cc(C(=O)NCC2(N3CCOCC3)CCCCC2)cc(OC)c1C`, the activation is reported as inactive: -1.9%. `O=C(NCC1(N2CCOCC2)CCCCC1)c1cc(Br)ccc1Cl` was tested, and the activation was inactive: 8.87%. `COc1ccc(C(=O)NCC2(N3CCOCC3)CCCCC2)cc1OC` was tested, and the activation was inactive: -0.05%. With `CN(C)C1(CNC(=O)c2cccc(C#N)c2)CCCCC1` the activation was inactive: 0.18%. `c1ccc(CN2CCC(Nc3ccccc3)CC2)cc1` was tested, and the activation was inactive: 13.3%. `CCCN1CCC(Nc2cc(OC)cc(OC)c2)CC1` was tested, and the activation was inactive: 1.81%. For `N#Cc1ccc(C(=O)NCC2(N3CCCCC3)CCCCC2)cc1`, the activation was inactive: -1.71%. For `CC(C)(C)OC(=O)N1CCC(N(C(=O)c2ccccc2)c2ccc(Cl)cc2)CC1`, the activation was inactive: 8.53%.
